Test results from ChEMBL document CHEMBL4028808, “Design and synthesis of selective CDK8/19 dual inhibitors: Discovery of 4,5-dihydrothieno[3',4':3,4]benzo[1,2-d]isothiazole derivatives” (Bioorg Med Chem, 2017).

Protein sequences, listed by entry. Tags and fused reporters are not part of them. Lines headed by an entry give the natural chain unless they say otherwise; changes in a name come on top.
UniProt P49336: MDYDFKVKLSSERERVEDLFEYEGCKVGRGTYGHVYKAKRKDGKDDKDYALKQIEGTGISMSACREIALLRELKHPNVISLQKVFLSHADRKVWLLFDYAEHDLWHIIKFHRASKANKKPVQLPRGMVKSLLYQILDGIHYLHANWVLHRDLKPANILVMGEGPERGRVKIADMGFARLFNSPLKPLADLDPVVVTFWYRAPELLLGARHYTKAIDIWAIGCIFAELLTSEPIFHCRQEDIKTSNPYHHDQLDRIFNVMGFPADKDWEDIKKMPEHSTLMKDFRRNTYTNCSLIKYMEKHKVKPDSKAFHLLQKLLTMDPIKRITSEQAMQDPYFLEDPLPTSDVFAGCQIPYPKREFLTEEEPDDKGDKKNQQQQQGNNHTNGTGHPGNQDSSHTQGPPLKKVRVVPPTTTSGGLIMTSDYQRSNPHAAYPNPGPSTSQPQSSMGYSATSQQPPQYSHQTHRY

Molecular target: CDK8/Cyclin C (Homo sapiens, UniProt P49336)
Test: Inhibition of full length N-terminal GST/His6-tagged human CDK8 (M1 to Y463 residues)/N-terminal His6-tagged Cyc C (M1 to S283 residues) expressed in Sf9 insect cells at 1 uM using RBER-IRStide as substrate by filter binding assay

Question: Which IC50 does the source give for `CN1CCN(C(=O)c2ccc3cc(CCNc4ncnc5ccc(C#N)cc45)ccc3c2)CC1` [SENEXIN B] here?
Answer: The IC50 was 0.024 to 0.05 µM.
